Biological target: T1, Bile acid receptor (Homo sapiens) (UniProt Q96RI1)
T1 sequence (whole entry): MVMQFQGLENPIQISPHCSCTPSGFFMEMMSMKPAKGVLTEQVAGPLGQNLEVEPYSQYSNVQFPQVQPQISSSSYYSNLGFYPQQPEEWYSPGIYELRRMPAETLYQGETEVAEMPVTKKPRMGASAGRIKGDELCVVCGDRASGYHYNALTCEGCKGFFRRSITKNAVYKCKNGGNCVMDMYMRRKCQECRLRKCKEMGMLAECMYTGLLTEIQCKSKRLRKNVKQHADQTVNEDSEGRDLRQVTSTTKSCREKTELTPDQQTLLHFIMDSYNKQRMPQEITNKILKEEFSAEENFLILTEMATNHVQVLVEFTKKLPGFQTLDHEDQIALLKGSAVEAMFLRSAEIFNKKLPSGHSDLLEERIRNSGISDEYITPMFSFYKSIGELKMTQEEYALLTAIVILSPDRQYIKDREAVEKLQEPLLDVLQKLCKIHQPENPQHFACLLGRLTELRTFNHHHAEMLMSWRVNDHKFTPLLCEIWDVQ
Experiment: Agonist activity at recombinant human GST-tagged FXR LBD (193 to 472 residues) expressed in baculovirus-infected insect cells assessed as recruitment of biotinylated SRC1 peptide measured after 1 hr by Alphascreen assay relative to CDCA

With CC[C@H]1[C@@H](O)[C@@H]2[C@H](CC[C@]3(C)[C@@H]([C@H](C)CCC(=O)NCCS(=O)(=O)O)CC[C@@H]23)[C@@]2(C)CC[C@@H](O)C[C@@H]12 as the compound, how does the Efficacy read?
Its Efficacy is 131%.

Reference: ChEMBL document CHEMBL4138253, “Synthesis and Biological Evaluation of a Series of Bile Acid Derivatives as FXR Agonists for Treatment of NASH” (ACS Med Chem Lett, 2017)
